Literature values, collected in PMC8548585, “Triazolopyrimidine herbicides are potent inhibitors of Aspergillus fumigatus acetohydroxyacid synthase and potential antifungal drug leads” (Scientific Reports, 2021).

Tested on: ScAHAS
Conditions: read-out: KM for pyruvate; cited from earlier work

CC(=O)C(=O)O
Km: 3.6 mM
